This data set in a line: Adsorbent study: reduction of 3NOP concentration in solution (HPLC 230 nm). As to conditions: 0.2 g of adsorbent in 10 mL of 1% 3NOP/H2O; 24 h; control 8.258 mM.

These results are taken from US20250222082A1, “PROTEIN AND PEPTIDE VACCINES TARGETING METHANOGENS” (Arkea Bio Corp., priority 2024, published 2025).

As for Iron Phosphate, the “3NOP concentration remaining in solution” value is 7.503 mM.
